## Measured affinities in a library of Ab-14 heavy chain variants

The measurements come from Li et al. 2023 (doi:10.1038/s41467-023-39022-2) through the FLAb antibody collection.

The target is the same throughout: PDVDLGDISGINAS, from the HR2 region of SARS-CoV-2 spike.

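The parent was found by panning a naive human phage display library on the peptide. These sequences belong to a second round, designed from the earlier measurements on random variants of the parent. Several design methods are mixed in this list. The scFvs were displayed on barcoded MATa yeast, the peptide on MATalpha yeast. Binding brings cells together so that they mate, and sequencing counts the barcode pairs among the diploids. Read counts were normalised to the haploid input and turned into Kd by a linear fit to BCL2-family pairs of known affinity, for each replicate. There are six technical replicates.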

The variants keep the light chain, the linker and the frameworks of Ab-14 (scFv order VH, a (GGGGS)3 linker, VL).
VH: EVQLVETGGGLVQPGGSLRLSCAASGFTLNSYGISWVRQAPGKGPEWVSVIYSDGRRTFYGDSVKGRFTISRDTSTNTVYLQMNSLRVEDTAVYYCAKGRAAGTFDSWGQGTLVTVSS
VL: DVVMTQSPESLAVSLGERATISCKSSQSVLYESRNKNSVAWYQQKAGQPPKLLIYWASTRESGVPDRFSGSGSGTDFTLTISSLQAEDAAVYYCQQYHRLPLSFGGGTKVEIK

Each variant is given by its three heavy chain CDRs, as the data file delimits them; those of the parent are GFTLNSYGIS, VIYSDGRRTFYGDSVK, GRAAGTFDS.
Kd is apparent (estimated from mating counts) and averaged on the log scale over replicates with a signal. Smaller is tighter.
"no signal" marks a missing value. The strain was present, yet no cells mated with the target were sequenced in any replicate, which points to weak or no binding.
Order: sorted from the lowest average up, undetected variants last.
The range of this assay differs from that of the first round, and the authors advise against merging the two.

CDR-H1,CDR-H2,CDR-H3,Kd (apparent),seen in
GFDLNEYGIS,VIYADGVRTYYADDVK,GQNAGTFDV,130 pM,6/6
GFDLNEYGIS,VIYADGRRTYYSDSVK,GNVGGTFDI,140 pM,6/6
GPSLQEYGIS,VIYADGMRTAYTDSVK,GLFGATFVD,180 pM,6/6
GFDLNEYGIS,VIYADGVRTAYIDSVK,GTNAGTFDV,180 pM,6/6
GFDLNEYGIS,VIYADGMRTAYADSVK,GNHAGTFDL,220 pM,6/6
GFDLNEYGIS,VIYADGKRKAYADSVK,GNVAGTFDV,220 pM,6/6
GFDLDEYGIS,VIYADGMRTAYADSVK,GSNAGTFDQ,330 pM,6/6
GFDLNEYGIS,VIYADGKRTAYSDSVK,GKNAGTFDV,390 pM,6/6
GFDLNEYGIS,VIYADGKRTAYADNVK,GEVAGTFDL,390 pM,6/6
GFNLEDYGIS,VIYADGRRTFYADSVK,GHVAGTFDV,400 pM,6/6
GFDLEDYGIS,VIYADGRRTFYSDSVK,GEIAGTFDT,440 pM,6/6
GFDLNEYGIS,VIYADGMRTAYSDSVK,GETAGTFDT,460 pM,6/6
GFDLNEYGIS,VIYADGRRTQYIDSVK,GEIAGTFDF,480 pM,6/6
GFDLDEYGIS,VIYADGRRTAYSDSVK,GNQAGTFDV,490 pM,6/6
GNTLNSYGIS,VIYSDGRRTAYGDSVK,GRAADTFDS,610 pM,6/6
GFKLDEYGIS,VIYADGHRVAYSNKVK,GDNVGNMFE,700 pM,6/6
GFDLNSYGIS,VIYSDGRRTFYVDSVK,GQAAGTFDS,760 pM,6/6
GFSLNEYGIS,VIYSDGRRTFYGDSVK,GRAAGTFDA,1.0 nM,6/6
GFDLNEYGIS,VIYADGMRTFYADSVK,GQLAGTFDM,1.1 nM,6/6
GFTLNEYGIS,VIYSDGRRTFYSDSVK,GQVAGTFDS,1.3 nM,6/6
GFELNSYGIS,VIYSDGRRTFYADDVK,GREAGTFDS,1.4 nM,6/6
GFELNSYGIS,VIYSDGRRTFYGDSVK,GKTAGTFDV,1.4 nM,6/6
GFDLNSYGIS,VIYSDGRRTFYGDAVK,GQAAGTFDS,1.6 nM,6/6
GFSLNNYGIS,VIYSDGRRTFYGDEVK,GRTAGTFDS,1.7 nM,6/6
GFTLNSYGIS,VIYSDGVRTFYSDSVK,GRVAGTFDS,1.7 nM,6/6
GFSLNEYGIS,VIYSDGRRTFYGDQVK,GRTAGTFDK,2.0 nM,6/6
GFELNSYGIS,VIYSDGRRTFYIDSVK,GQEAGTFDS,2.6 nM,6/6
GFTLNEYGIS,VIYSDGRRTFYTDSVK,GREAGTFDT,4.0 nM,6/6
GFDLEDYGIS,VIYADGKRTFYSDSVK,GEIAGTFDS,4.6 nM,2/6
GFNLEDYGIS,VIYADGRRTFYADSVK,GEVAGTFDV,4.7 nM,4/6
GFDLNEYGIS,VIYADGMRTAYIDSVK,GEQAGTFDV,5.3 nM,6/6
GFVLNEYGIS,VIYSDGRRTFYGDSVK,GEAAGTFDS,5.6 nM,4/6
GFRLNEYGIS,VIYSDGRRTFYGDSVK,GRTAGTFDT,6.4 nM,6/6
GFSLNSYGIS,VIYSDGRRTFYDDSVK,GRTAGTFDS,7.8 nM,6/6
GFSLNSYGIS,VIYSDGRRTFYGDSVK,GKLAGTFDT,15 nM,6/6
GFSLNGYGIS,VIYSDGRRTFYGDSVK,GRTAGTFDS,18 nM,6/6
GFTLDSYGIS,VIYSDGRRTFYIDSVK,GRIAGTFDS,24 nM,7/12
GFELNSYGIS,VIYSDGKRTFYVDSVK,GRTAGTFDS,39 nM,6/6
GFNLNSYGIS,VIYSDGRRTFYIDSVK,GRMAGTFDS,43 nM,6/6
GFTLNMYGIS,VIYSDGRRTFYGDSVK,GRTAGTFDS,46 nM,6/6
GFQLNEYGIS,VIYADGTRTAYADSVK,GAYDLVAVL,47 nM,1/6
GFHLNDYGIS,VIYSDGRRTFYIDSVK,GRHAGTFDS,54 nM,6/6
GENLSEYGIS,VIYADGKKTAYSNAVK,GAVGGIFVV,72 nM,6/6
GFTLNSYGIS,VIYSDGRRTFYSDSVK,GRAAGTFDY,84 nM,5/6
GADLNEYGIS,VIYADGSRVEYENSFK,GWVAGTFDS,170 nM,2/6
GFTLNSYGIS,VIYSDGRRTFYTDSVK,GQFAGTFDS,210 nM,4/6
GFSLNSYGIS,VIYSDGRRTFYGDSVK,GKTAGTFDW,530 nM,1/6
GQDLNEYGIS,VIYADGLRTAYTENVK,GNQSQFDSG,1.1 µM,1/6
GFDLDQYGIS,VIYADGKRVAYTADVK,GVQGGMAIV,2.8 µM,1/6
GFTLNQYGIS,VIYSDGRRTFYSKSVK,GRAAGFFDS,no signal,0/6
GFTLNEYGIS,VIYSDGRRTFYGDSVK,GRAAGTFGK,no signal,0/6
GFDLNSYGIS,VIYSDGQRTFYGDAVK,GGAACTFDS,no signal,0/6
GFTLNSYGIS,VIYADGRRTFYGDSVK,GRAAITNKS,no signal,0/6
GFDLNSYGIS,VIYSDGRRTFYRDSVK,GKAAGTFDS,no signal,0/6
GFTLNSYGIS,VIYSDGRRTFYIDSVK,GREAGTFFS,no signal,0/6
GFTLNSYGIS,VDYSDGKRTFYGDEVK,GRAAGTFDS,no signal,0/6
NFDLNSYGIS,VIYSDGRRTFYGDSVK,GRAAGWFNS,no signal,0/6
GFTINSYGIS,VIYSDGWRTFYGDSVK,GRCAGTFDS,no signal,0/6
GFDINEYGIS,VIYADGMRQVYINKFK,GDSGGIINF,no signal,0/6
GFNLNSYGIS,VIYSDGRRTFYADSVK,GWTAGTFDS,no signal,0/6
GFDLDEQGIS,VIYADGQRTAYADQVK,GMIGDGMRT,no signal,0/6
GYDIEEYGIS,VIYADGKRNAYANMVK,GKWAGTFVD,no signal,0/6
GFDINEYGIS,VIYADGMRTKYSESVK,GTGDGSFNG,no signal,0/6
GFTLNEYGIS,VIYSDGRRTFWGDSGK,GRAAVTFDQ,no signal,0/6
GFTLRQVGIT,VIYSDGRRTRYSDSVK,GRPAGFYDF,no signal,0/6
HFDLNSYGIS,VIYSDGRRTFYHDSVK,GQTAGTFDS,no signal,0/6
GFWLDEYGIS,VIYADGMRTAYKNSVK,GSFTYVMDV,no signal,0/6
GRSLDEYGIS,VIYADGVRQAYQDSVK,GNWSGTMMY,no signal,0/6
GFSLNSYGIS,VIYSDGRRTFYSDSVK,GVAGGTFDS,no signal,0/6
GFTLNSYGIS,VIYSDGYRTFYGDSVK,GDEAGTGDS,no signal,0/6
GFDLGEYGIS,VIYADGSRVSYAQKVK,GKNDAISSV,no signal,0/6
GFTPESYGIS,VIYSDGRRTFYGDSVR,GRAAGTFKS,no signal,0/6
GFSLDEFGIS,VIYADGMRTAYSQDVK,GQHVEFTVG,no signal,0/6

A selection of 11 entries from above:

{"CDR-H1": "GFDLNEYGIS", "CDR-H2": "VIYADGKRTAYSDSVK", "CDR-H3": "GKNAGTFDV", "Kd (apparent)": "390 pM", "seen in": "6/6"}
{"CDR-H1": "GFTLNEYGIS", "CDR-H2": "VIYSDGRRTFYSDSVK", "CDR-H3": "GQVAGTFDS", "Kd (apparent)": "1.3 nM", "seen in": "6/6"}
{"CDR-H1": "GFTLNMYGIS", "CDR-H2": "VIYSDGRRTFYGDSVK", "CDR-H3": "GRTAGTFDS", "Kd (apparent)": "46 nM", "seen in": "6/6"}
{"CDR-H1": "GFTLNQYGIS", "CDR-H2": "VIYSDGRRTFYSKSVK", "CDR-H3": "GRAAGFFDS", "Kd (apparent)": "no signal", "seen in": "0/6"}
{"CDR-H1": "NFDLNSYGIS", "CDR-H2": "VIYSDGRRTFYGDSVK", "CDR-H3": "GRAAGWFNS", "Kd (apparent)": "no signal", "seen in": "0/6"}
{"CDR-H1": "GPSLQEYGIS", "CDR-H2": "VIYADGMRTAYTDSVK", "CDR-H3": "GLFGATFVD", "Kd (apparent)": "180 pM", "seen in": "6/6"}
{"CDR-H1": "GFSLNSYGIS", "CDR-H2": "VIYSDGRRTFYGDSVK", "CDR-H3": "GKLAGTFDT", "Kd (apparent)": "15 nM", "seen in": "6/6"}
{"CDR-H1": "GFTLNSYGIS", "CDR-H2": "VIYSDGYRTFYGDSVK", "CDR-H3": "GDEAGTGDS", "Kd (apparent)": "no signal", "seen in": "0/6"}
{"CDR-H1": "GFSLNEYGIS", "CDR-H2": "VIYSDGRRTFYGDSVK", "CDR-H3": "GRAAGTFDA", "Kd (apparent)": "1.0 nM", "seen in": "6/6"}
{"CDR-H1": "GENLSEYGIS", "CDR-H2": "VIYADGKKTAYSNAVK", "CDR-H3": "GAVGGIFVV", "Kd (apparent)": "72 nM", "seen in": "6/6"}
{"CDR-H1": "GFDLNSYGIS", "CDR-H2": "VIYSDGRRTFYRDSVK", "CDR-H3": "GKAAGTFDS", "Kd (apparent)": "no signal", "seen in": "0/6"}

The authors' rule: three or more of the six replicates give a measured affinity, fewer mean a poor binder.
Of ten entries with the parent sequence, four were seen in most replicates (averages 2.2 nM to 240 nM), three in one and three in none, so single entries are noisy.
Where one sequence has several entries in the source, the replicates are pooled.
As a blank, each scFv also met three strains without target: over all heavy chain designs, 1% of these pairings were detected, typically at 120 nM and seldom below 7.0 nM.